A short description of data set [1]: Neuropathic responses, Von Frey test of mechanical sensitivity. As to conditions: after 2 doses, versus Oxaliplatin.
The nature of data set [2]: Toxicity study: blood cell counts in tumor-bearing mice. As to conditions: Oxaliplatin 5, Compound 1 8.5, Compound 5 9 mg/kg Pt equivalents IV days 1, 8, 15. The protocol:
The mice were randomised into 4 groups of n=5 mice, (mean tumor volume ˜90 mm^3) On day one, animals were eye bled in the morning for baseline cell counts and then drug dosing commenced later that day. Drug dosing was performed on days 1, 8 and 15 at the previously determined maximum tolerated doses. All compounds were dissolved in 5% glucose at the concentration required to allow administration of 0.1 mL/10 g body weight. […] Subsequent eye bleeds were performed on days 7, 14 and 26 (Tables 4 A-D, in each case data represented as mean ratio of counts for each time point relative to that at the baseline).

Data set [3] deals with bone marrow nucleated cells. Description: Nucleated cells in bone marrow by flow cytometry. To be noted: 72 hours; greater dose of Pt than Oxaliplatin.

Take “BHALys[Lys]32[α-Succ-Gly-Gly-Gly-amino malonic acid-Pt-1R,2R-(DACH)]32[ε-PEG2200]32 [Compound 1]”: the “mechanical sensitivity / peripheral neurotoxicity” value in data set [1] is on record as “improved mechanical sensitivity”. The “Mean lymphocytes counts (baseline corrected) (SEM)” value in data set [2] (Day 1 (baseline)) is given as 1.000 (0.196); in data set [2] (Day 7), 1.365 (0.420); in data set [2] (Day 14), 2.059 (0.500); in data set [2] (Day 26), 1.127 (0.221). Besides, the “damage to bone marrow nucleated cells compared with Oxaliplatin” value in data set [3] is “higher proportion of nucleated cells at 72 hours”.

“BHALys[Lys]32[α-Succ-Gly-Leu-Phe-Gly-amino malonic acid-Pt-1R,2R-(DACH)]32[ε-PEG2200]32 [Compound 5]”: the “Mean lymphocytes counts (baseline corrected) (SEM)” value was 1.000 (0.381) in data set [2] (Day 1 (baseline)), 0.300 (0.150) in data set [2] (Day 7), 1.057 (0.340) in data set [2] (Day 14) and 1.224 (0.366) in data set [2] (Day 26).

(Values after US20160220689A1, “MACROMOLECULES OF DENDRIMER-PLATINUM CONJUGATES” (priority 2013, published 2016).)
